Reference: patent publication US8754071B2 (priority 2011, dated 2014)

Sequences of proteins named here, by UniProt entry; tags and fusion partners are left off. Residues count along the entry.
UniProt P10721, 26-976 limits assumed: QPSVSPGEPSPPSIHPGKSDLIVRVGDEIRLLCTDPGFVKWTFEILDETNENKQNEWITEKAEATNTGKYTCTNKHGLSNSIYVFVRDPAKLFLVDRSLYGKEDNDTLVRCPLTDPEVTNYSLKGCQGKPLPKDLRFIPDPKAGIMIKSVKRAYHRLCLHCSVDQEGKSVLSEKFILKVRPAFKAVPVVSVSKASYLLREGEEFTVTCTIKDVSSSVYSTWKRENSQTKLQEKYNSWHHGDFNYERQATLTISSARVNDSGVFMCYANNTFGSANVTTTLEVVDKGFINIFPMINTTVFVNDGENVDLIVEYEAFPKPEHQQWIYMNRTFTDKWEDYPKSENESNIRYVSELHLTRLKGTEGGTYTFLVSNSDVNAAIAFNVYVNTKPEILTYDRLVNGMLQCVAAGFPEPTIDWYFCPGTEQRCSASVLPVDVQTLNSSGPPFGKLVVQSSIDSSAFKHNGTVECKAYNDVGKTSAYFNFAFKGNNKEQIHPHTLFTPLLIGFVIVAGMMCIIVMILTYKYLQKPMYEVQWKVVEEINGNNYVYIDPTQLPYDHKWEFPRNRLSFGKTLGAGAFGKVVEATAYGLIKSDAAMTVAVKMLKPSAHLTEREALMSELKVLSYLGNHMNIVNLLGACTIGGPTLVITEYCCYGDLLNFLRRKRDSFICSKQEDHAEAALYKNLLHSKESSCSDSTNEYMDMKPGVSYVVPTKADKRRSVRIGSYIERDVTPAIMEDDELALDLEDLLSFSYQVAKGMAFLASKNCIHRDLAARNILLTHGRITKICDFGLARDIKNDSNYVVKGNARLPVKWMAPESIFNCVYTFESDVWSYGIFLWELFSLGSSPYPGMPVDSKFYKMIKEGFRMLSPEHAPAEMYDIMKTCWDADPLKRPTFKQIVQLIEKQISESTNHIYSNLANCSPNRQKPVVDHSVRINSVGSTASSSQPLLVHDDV

Target: c-kit (Homo sapiens, UniProt P10721)
Test: Mo7e cell proliferation assay (SCF dependent proliferation)
Type: cell-based
Details: read-out: c-kit (Mo7e) μM; Table 2; human Mo7e cells stimulated with SCF, 48 hours, CellTiter Glo; 1% FBS
Method: Mo7e Cell Proliferation Assay The compounds of Table 1 and Table 2 were tested for inhibition of SCF dependent proliferation using human Mo7e cells which endogenously express c-kit in a 384 well format. […] After 48 hours of incubation at 37° C., cell viability was measured by adding 25 uL of CellTiter Glo (Promega) to the cells and the luminescence was measured by a […] camera (Molecular Devices). […] The IC50 value is given as that concentration of the test compound in question that provoke a response halfway between the baseline and maximum responses.

**Q.** How did the IC50 turn out when `Cc1ccc(-c2noc(CN3CC(C#N)C3)n2)cc1NC(=O)c1cnc2ccc(-c3cnn(CC(C)(C)O)c3)cn12` was run?
**A.** Its IC50 is 0.146 µM.
